One test relates to Male Swiss albino mice. The following applies: 30 minutes post treatment, last 4 minutes of 6 min, FIG. 7.
The test system of another test is Male Wistar rats. Nature of the test: Object recognition task, in vivo model for chemotherapy-induced (DOX) cognitive impairment. The settings on record: DOX 2.5 mg/kg i.p. induced cognitive impairment, FIG. 2.
For the next test, the system named is Male CD1 mice. The following applies: 30 mg/kg, p.o., 60 minutes prior to the trial, FIG. 6.

Structures are written as SMILES.

Turning to `COCCCN1CCC(c2nnc(-c3nn(C(C)C)c4ccccc34)o2)CC1.O=C(O)C(=O)O` [Compound-1, Isopropyl-3-{5-[1-(3-methoxypropyl)piperidin-4-yl]-[1,3,4]oxadiazol-2-yl}-1H-indazole oxalate], the duration of immobility result in the test with Male Swiss albino mice is reported as “significantly decreased”. The discriminative index entry in the test with Male Wistar rats is listed as “significantly higher”. For the same compound, the “aggression levels (duration of attack)” value in the test on Male CD1 mice is recorded as “decreased”.

For the origin of these results see patent US12285421B2, “Uses of a 5-HT4 receptor agonist” (SUVEN LIFE SCIENCES LIMITED, priority 2018, dated 2025).
